{"sequences": {"note": "Chains of the proteins cited; added tags and fusions are not shown. Residues count along the entry.", "UniProt P17181, 28-436": "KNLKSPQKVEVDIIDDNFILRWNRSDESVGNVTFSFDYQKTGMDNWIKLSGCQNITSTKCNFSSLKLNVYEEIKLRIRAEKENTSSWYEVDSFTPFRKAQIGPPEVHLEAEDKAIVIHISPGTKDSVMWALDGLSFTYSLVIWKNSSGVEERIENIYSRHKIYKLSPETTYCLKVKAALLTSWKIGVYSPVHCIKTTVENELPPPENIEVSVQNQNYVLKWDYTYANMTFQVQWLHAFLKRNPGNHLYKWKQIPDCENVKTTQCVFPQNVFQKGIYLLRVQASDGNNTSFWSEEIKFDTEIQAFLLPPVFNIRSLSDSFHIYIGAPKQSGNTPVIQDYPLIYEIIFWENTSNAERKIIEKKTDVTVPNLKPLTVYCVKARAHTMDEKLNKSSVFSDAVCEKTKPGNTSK"}, "source": "paper PMC5373932", "molecular_target": "recombinant type I interferon receptor subunit extracellular domain IFNAR1-EC (UniProt P17181)", "assay": "SPR", "data": [{"substance": "super-compound interferon-I (sIFN-I) (ligand)", "values": [{"measurement": "Kd", "result": 600, "unit": "nM"}]}]}
